# Laboratory results published in patent US20150307519A1, “SMALL MOLECULES FOR RESTORING FUNCTION TO P53 CANCER MUTANTS” (THE REGENTS OF THE UNIVERSITY OF CALIFORNIA, priority 2014, published 2015).
# Assays:
# p53 R175H DBD protein = target: T1, p53 R175H DBD protein (Homo sapiens, UniProt P04637, R175H); assay: Differential scanning fluorimetry (DSF) thermal stabilization of p53 R175H DBD; type: binding; conditions: for effect on R175H DBD stability in DSF (qualitative): thiosemicarbazone with added metal salt, or metal salt alone
# T1 construct: wild-type p53 protein DBD protein (residues 94-312 of the full length); made in house; host or cells: Escherichia coli Rosetta 2 (DE3), vector pSE420
# From the text: Differential scanning fluorimetry (DSF) is a biophysical technique capable of identifying stabilizing or destabilizing physical interactions between protein and small chemical compounds by detecting changes in protein melting temperature (Tm) caused by such physical interactions. In DSF assays, small compounds that destabilize a protein decrease its Tm and small compounds that stabilize a protein increase its Tm. Small chemical compounds that stabilize p53 SRMMPs by physically interacting with them have broad potential as anti-cancer pharmaceuticals. This class of compounds could restore wild-type p53 protein functions of cell cycle arrest and apoptotic pathway activation in p53 SRMMP cancer cells because they have the potential to increase in such cells the population of active-configuration p53 SRMMP.
# The importance of this aspect of the invention derives from the thermodynamic instability of p53 SRMMPs (as reflected in their relatively lower Tm than wild-type p53 protein) and the requirement for properly folded p53 SMRRP for input into the DSF SLS assay described in Example 2.
# An equivalent volume of DMSO was used as a control. […] Sypro Orange stain (Bio-Rad, Hercules, Calif.) at 5,000× stock concentration was diluted to 5× concentration in 20 mM HEPES at pH 7.4 and added to each well of a 96-well plate. All SLS compounds were independently measured for fluorescence background to eliminate false positive results. […] All DSF assays were performed with a Touch RT-PCR system CFX96 (Bio-Rad) with the starting temperature of 4° C. by increasing the temperature of the plate 1.0° C. per min to 94° C. Fluorescence measurements were taken once every minute during all experiments. Tm values for each well, mean Tm values, and 95% confidence intervals were calculated with the program Prism 5 (GraphPad Software, La Jolla, Calif.) by fitting the raw fluorescence data to a Boltzmann sigmoidal curve.
# [1] = system: Saos-2 cells expressing p53^R175H; conditions: for reactivation of p53^R175H in osteosarcoma cell-based assay: FIG. 7, equimolar metal salt or metal salt alone, three days; for p53 R175H-dependent cancer cell cytotoxicity: 27 hours, FIGS. 5A-5C
# [2] = system: cancer cells with p53^R175H mutations; conditions: Yu et al. Cancer Cell 21(2012); cited from earlier work
structure (smiles),measurement,setting,value
[Cl][Cu][Cl] [CuCl2],effect on R175H DBD stability in DSF (qualitative),p53 R175H DBD protein,reduced the Tm
same,reactivation of p53^R175H in osteosarcoma cell-based assay,[1],substantially no effect
[Cl][Fe][Cl] [Fe(II)Cl2],effect on R175H DBD stability in DSF (qualitative),p53 R175H DBD protein,reduced the Tm
same,reactivation of p53^R175H in osteosarcoma cell-based assay,[1],substantially no effect
Cn1ncc2c(Nc3ccc(Br)cc3)nc(Nc3ccc(Br)cc3)nc21 [NSC11667],restoration of thermodynamic stability of R175H DBD relative to WT DBD,p53 R175H DBD protein; 20 μM,restores the thermodynamic stability of R175H DBD to the level of WT DBD
same,Tm of R175H DBD in presence of compound,p53 R175H DBD protein; 20 μM compound,39.22±0.13 °C
same,stabilization of R175H DBD (increase of Tm),"p53 R175H DBD protein; 20 μM compound, dose-dependent retest",about 11 °C
same,reduction of cell proliferation of p53^R175H-expressing Saos-2 cells,"[1]; 100 μM, 3 days",90%
"C/C(=N\NC(=S)N(C)C)c1ccccn1 [NSC319725, reference compound]",thermodynamic stabilization of R175H DBD (qualitative),"p53 R175H DBD protein; 20 μM, 40 μM and 80 μM",no stabilization
same,p53 R175H-dependent cancer cell cytotoxicity,[1],marked
same,restoring p53 activity to cancer cells,[2],restoring p53 activity
NS(=O)(=O)c1nc2nc[nH]c(=O)c2[nH]1 [NSC635448],restoration of thermodynamic stability of R175H DBD relative to WT DBD,p53 R175H DBD protein; 40 μM and 80 μM,restores the thermodynamic stability of R175H DBD to the level of WT DBD
same,Tm of R175H DBD in presence of compound,p53 R175H DBD protein; 80 μM compound,43.50±0.07 °C
same,stabilization of R175H DBD (increase of Tm),p53 R175H DBD protein; 80 μM compound,more than 15 °C
same,reduction of cell growth of p53^R175H-expressing Saos-2 cells,"[1]; 1 μM, 3 days",80%
same,p53 R175H-dependent cancer cell cytotoxicity,[1],marked
"O=C1C2CCN(CC2)C1(CO)CO [PRIMA-1, reference compound]",proliferation and survival of p53^R175H-expressing Saos-2 cells (remaining),"[1]; 50 μM (Cmax), 3 days",about 50%
[Cl-].[Cl-].[Zn+2] [ZnCl2],effect on R175H DBD stability in DSF (qualitative),p53 R175H DBD protein,precipitate
same,reactivation of p53^R175H in osteosarcoma cell-based assay,[1],substantially no effect
